In one data set the target is CYP2C9 (Homo sapiens, UniProt P11712). Briefly: Cytochrome P450 inhibition, pooled human hepatic microsome. The data set is classed as in vitro ADME. The following applies: read-out: Cytochrome P450 CYP2C9 IC50, procedure of Example 14.
Another data set concerns the target CYP1A2 (Homo sapiens, UniProt P05177). The data set is described as above. The data set is classed as in vitro ADME. The following applies: read-out: Cytochrome P450 CYP1A2 IC50, procedure of Example 14.
The target of another data set is CYP3A4 (Homo sapiens, UniProt P08684). The data set is described as above. The following applies: read-out: Cytochrome P450 CYP3A4 IC50, procedure of Example 14. The data set is classed as in vitro ADME.
In the next data set the target is CYP2D6 (Homo sapiens, UniProt P10635). The data set is described as follows: Cytochrome P450 inhibition, pooled human hepatic microsome (O-demethylation of dextromethorphan). The data set is classed as in vitro ADME. The following applies: read-out: Cytochrome P450 CYP2D6 IC50, procedure of Example 14.
The target in data set [1] is T1, human opioid receptor-like (ORL-1) (Homo sapiens, UniProt P41146). Briefly: ORL-1 receptor [35S]GTPγS functional binding assay. The data set is classed as biochemical. The conditions noted are these: mean ± SEM; procedure of Example 7. A general note: GTPγS is a poorly hydrolysed GTP analogue; its binding reports G protein activation.
Data set [2] deals with T1, human opioid receptor-like (ORL-1). The data set is described as follows: In vitro ORL-1 receptor binding assay ([3H]-nociceptin displacement). The conditions noted are these: read-out: ORL-1 Ki; Average ± Std Deviation; procedure of Example 6.

Protein sequences, listed by entry. Tags and fused reporters are not part of them. Lines headed by an entry give the natural chain unless they say otherwise; changes in a name come on top.
UniProt P11712, whole entry, looked up: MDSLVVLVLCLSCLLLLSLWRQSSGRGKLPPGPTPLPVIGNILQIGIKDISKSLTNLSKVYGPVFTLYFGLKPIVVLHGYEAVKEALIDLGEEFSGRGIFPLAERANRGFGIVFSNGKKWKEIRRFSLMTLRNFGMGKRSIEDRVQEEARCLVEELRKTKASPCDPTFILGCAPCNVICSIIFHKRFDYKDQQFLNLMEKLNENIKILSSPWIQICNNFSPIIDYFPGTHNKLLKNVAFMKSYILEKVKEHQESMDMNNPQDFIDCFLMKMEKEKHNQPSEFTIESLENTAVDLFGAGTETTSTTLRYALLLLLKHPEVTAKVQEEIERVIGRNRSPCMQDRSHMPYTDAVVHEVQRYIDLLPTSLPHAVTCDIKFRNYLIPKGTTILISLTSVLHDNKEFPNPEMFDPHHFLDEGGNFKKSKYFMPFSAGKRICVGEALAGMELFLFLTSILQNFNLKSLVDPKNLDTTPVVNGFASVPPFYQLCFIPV
UniProt P05177, whole entry, looked up: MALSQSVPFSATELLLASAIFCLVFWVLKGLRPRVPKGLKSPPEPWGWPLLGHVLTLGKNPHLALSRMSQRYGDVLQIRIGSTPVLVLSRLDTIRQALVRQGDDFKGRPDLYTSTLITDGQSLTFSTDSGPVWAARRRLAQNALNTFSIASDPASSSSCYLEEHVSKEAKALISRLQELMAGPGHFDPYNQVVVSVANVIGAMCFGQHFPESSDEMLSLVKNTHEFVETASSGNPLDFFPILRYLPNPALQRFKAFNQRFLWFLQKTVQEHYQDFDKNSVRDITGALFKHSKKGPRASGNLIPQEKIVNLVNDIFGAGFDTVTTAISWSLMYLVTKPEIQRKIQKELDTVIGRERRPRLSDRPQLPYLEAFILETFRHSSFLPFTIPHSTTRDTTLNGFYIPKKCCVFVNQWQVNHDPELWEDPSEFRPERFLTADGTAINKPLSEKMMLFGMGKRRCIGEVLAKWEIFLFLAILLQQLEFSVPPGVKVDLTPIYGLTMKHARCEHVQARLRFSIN
UniProt P08684, whole entry, looked up: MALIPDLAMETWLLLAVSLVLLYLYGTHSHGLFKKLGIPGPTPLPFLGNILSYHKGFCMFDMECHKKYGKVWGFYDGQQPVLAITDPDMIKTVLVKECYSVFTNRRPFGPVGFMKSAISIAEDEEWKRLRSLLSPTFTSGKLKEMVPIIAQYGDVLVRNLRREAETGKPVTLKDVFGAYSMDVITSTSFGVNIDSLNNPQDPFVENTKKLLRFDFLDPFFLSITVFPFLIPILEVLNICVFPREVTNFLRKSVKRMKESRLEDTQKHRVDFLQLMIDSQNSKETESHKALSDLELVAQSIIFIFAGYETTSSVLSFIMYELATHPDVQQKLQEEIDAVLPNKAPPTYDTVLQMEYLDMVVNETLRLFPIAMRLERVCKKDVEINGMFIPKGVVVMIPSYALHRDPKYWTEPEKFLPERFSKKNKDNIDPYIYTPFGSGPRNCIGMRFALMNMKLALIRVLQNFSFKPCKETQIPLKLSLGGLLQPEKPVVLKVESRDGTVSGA
UniProt P10635, whole entry, looked up: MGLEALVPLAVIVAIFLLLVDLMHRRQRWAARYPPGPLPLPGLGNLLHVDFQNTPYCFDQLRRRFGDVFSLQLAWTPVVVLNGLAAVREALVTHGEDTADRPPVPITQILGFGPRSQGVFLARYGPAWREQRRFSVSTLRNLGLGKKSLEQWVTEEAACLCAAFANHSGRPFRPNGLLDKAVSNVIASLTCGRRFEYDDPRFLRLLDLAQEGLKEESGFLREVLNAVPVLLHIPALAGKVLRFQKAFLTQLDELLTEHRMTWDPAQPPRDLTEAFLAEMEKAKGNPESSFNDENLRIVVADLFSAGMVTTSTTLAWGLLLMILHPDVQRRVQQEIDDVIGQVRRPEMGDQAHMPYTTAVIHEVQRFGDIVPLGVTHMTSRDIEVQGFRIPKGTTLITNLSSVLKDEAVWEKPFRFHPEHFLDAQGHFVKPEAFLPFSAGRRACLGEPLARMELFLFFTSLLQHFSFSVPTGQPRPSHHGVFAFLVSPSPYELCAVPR
UniProt P41146: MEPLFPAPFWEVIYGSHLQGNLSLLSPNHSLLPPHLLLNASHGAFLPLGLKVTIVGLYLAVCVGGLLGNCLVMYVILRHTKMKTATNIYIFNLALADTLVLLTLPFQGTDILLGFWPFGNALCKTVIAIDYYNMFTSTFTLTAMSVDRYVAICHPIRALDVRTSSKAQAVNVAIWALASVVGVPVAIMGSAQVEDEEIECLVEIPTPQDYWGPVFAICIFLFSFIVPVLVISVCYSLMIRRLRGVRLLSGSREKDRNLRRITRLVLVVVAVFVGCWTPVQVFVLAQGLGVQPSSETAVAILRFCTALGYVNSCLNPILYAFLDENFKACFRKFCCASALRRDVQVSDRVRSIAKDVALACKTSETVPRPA

In the case of “2-(1-((1R,3r,5S)-9-cyclodecyl-9-azabicyclo[3.3.1]nonan-3-yl)-1H-indol-3-yl)-2-oxoacetic acid”, the concentration for half-maximal inhibition (IC50) at CYP2C9 was over 20 µM; on CYP1A2, over 20 µM; at CYP3A4 it was over 20 µM; at CYP2D6, 3.25 µM. Also, the “ORL-1 GTPγS Emax” value in data set [1] turned out to be 100 ± 5.51%. In addition, the Ki in data set [2] is 0.00584 µM.

For the molecule `O=C(O)C(=O)c1cn([C@H]2C[C@H]3CCC[C@@H](C2)N3[C@H]2C[C@@H]3CCC[C@@H](C3)C2)c2ccccc12`, the half-inhibitory concentration (IC50) on CYP2C9, at CYP1A2, on CYP3A4 and at CYP2D6 was over 20 µM each time.

Turning to `NC(=O)C(=O)c1cn([C@H]2C[C@H]3CCC[C@@H](C2)N3[C@H]2C[C@@H]3CCC[C@@H](C3)C2)c2ccccc12`, the IC50 at CYP2C9, at CYP1A2, on CYP3A4 and at CYP2D6 was over 20 µM each time.

One may read the IC50 as the point on the concentration scale where inhibition reaches its midpoint. What is called Ki is the dissociation constant of the complex between target and ligand, obtained from inhibition or displacement.

For the origin of these results see US9963458B2, “Indole and indoline-type piperidine compounds and uses thereof” (priority 2012, dated 2018).
